Experimental data: patent US12613237B2, “Biosensors for detecting arrestin signaling” (MONTANA MOLECULAR, LLC, priority 2018, dated 2026)

Legend:
[1] = target: T1, Angiotensin II receptor type 1 (AT1) (Homo sapiens, UniProt P30556); format: cell-based; details: AT1-expressing HEK293T cells, BArr L1-3 B8 (FIG. 5A/5B)
T1 construct: expressed in transfected cells; host or cells: HEK293T

[2] = target: T1, Angiotensin II receptor type 1 (AT1); test: Red DAG biosensor fluorescence (Gq signaling) in AT1-expressing HEK293T cells; format: cell-based; details: AT1-expressing HEK293T cells (FIG. 5A/5B)
angiotensin II receptor = target: T2, angiotensin II receptor (Homo sapiens, UniProt P30556); format: cell-based; details: 15 minute time span, HEK293T cells (FIG. 7A)
T2 construct: expressed in transfected cells; host or cells: HEK293T

[3] = target: Angiotensin II receptor type 1 (Homo sapiens, UniProt P30556); test: BArr 5A arrestin biosensor fluorescence, time-lapse imaging of transfected HEK293T cells; details: Angiotensin II receptor type 1, normalized fluorescence (FIG. 4)

Angiotensin II
response in the arrestin sensor (green fluorescence) [1]: rapid response
response in the DAG sensor (red fluorescence) [2]: rapid increase in DAG
arrestin sensor response over time (speed) (angiotensin II receptor): fastest response
tau of BArr 5A biosensor response [3]: 16 s
